The target of this assay is T1, nectin-3 (UniProt Q9NQS3 58-549, limits assumed).
T1 construct: whole, on cells
Kind of assay: western blot of lysates of MDA-MB-231 cells transfected with null vector (wt cells express nectin-1, -2, -3); similar results by FACS.

Amino acid sequences for entries named in this document (tags omitted). Residues count along the entry.
UniProt Q9NQS3, 58-549 limits assumed: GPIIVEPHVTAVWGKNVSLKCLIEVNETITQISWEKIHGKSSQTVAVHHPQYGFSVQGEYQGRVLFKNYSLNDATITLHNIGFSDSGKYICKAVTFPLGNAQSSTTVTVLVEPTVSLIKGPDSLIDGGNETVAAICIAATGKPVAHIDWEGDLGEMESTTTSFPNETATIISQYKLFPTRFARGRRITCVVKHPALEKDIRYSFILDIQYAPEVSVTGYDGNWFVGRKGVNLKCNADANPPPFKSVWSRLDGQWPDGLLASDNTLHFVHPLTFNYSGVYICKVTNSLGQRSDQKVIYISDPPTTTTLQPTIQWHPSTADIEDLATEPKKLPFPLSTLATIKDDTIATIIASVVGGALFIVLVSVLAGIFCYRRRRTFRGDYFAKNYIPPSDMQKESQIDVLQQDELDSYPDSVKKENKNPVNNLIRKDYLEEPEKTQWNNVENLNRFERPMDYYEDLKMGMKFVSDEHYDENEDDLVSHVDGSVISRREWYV

Results on one molecule are retold here after patent publication US20210324104A1 (INSERM INSTITUT NATIONAL DE LA SANT ET DE LA RECHERCHE M …, published 2021).

B1: 14A5.2 monoclonal antibody (antibody, V domains shown)
VH: EVLLQQSGPELVKPGASVKIPCKASGYTFTDYTMDWVKQSHGKSLEWIGDINPNNDVTMYNEKFKGRATLTVDKSSSTAYMEVRSLTSEDTAVYYCVRGRGFAYWGQGTLVTVSA
VL: DIVLTQSPASLIVSLGQRATISCRASQSVSTSSNSYMHWYQQKPGQPPKLLIRFASNLESGVPARFSGSGSGTYFTLNIHPVEEEDSATYYCQHSWEIPYTFGGGTKLEIK
notes: Parental non-chimeric monoclonal antibody; also called 14A5.2 mab; 14A5.2-HRP
As for B1, the binding result was “no binding (tested: 1 µg/ml)”.
